Experimental data: PubChem BioAssay AID1259376 (The Scripps Research Institute Molecular Screening Center, 2018)
Only a part is listed here, and it is no random draw. Activity calls are given as the source filed them.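 Rule for the calls: active = inhibition above a cutoff derived from the DMSO control wells (cut at about 30% in these data); inactive = the rest.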

Test: AlphaScreen optical interference compounds, counter-screen for MITF inhibitor project, biochemical, triplicate (AID 1259376)
Conditions: LysRS AlphaScreen counterscreen, signal interference, at 2.6 µM, active compounds read high
For `CN(C)CCOC(=O)C(O)(c1ccccc1)C1CCCCC1` (stereo not drawn), the inhibition was inactive: -4.77%.
For `CCOP(C)(=S)SCN(CC(=O)O)C(=O)OC` (stereo not drawn), the inhibition was inactive: 7.49%.
For `O=[N+]([O-])c1cc2[nH]c3cc([N+](=O)[O-])c([N+](=O)[O-])cc3c2cc1[N+](=O)[O-]`, the inhibition was inactive: -13.1%.
